We go through one compound from ChEMBL document CHEMBL5532688, “Carltonine-derived compounds for targeted butyrylcholinesterase inhibition” (RSC Med Chem, 2024).

The series in a line: in vitro. To be noted: PAMPA, pH 7.4.

Structures are written as SMILES.

Consider `CCN(C)C(=O)Oc1cccc([C@H](C)N(C)C)c1` [RIVASTIGMINE], for which the Papp at 100 µM was found to be 20 ×10⁻⁶ cm/s.
